Reference: patent US11208404B2 (PERENNA PHARMACEUTICALS, INC., priority 2017, dated 2021)
Where “and” joins values, the source holds several entries; their conditions need not be identical. Equal entries are not always repeated.

The chains behind the UniProt entries cited, without tags or fusion partners.
UniProt Q6UWP7, whole entry, species assumed: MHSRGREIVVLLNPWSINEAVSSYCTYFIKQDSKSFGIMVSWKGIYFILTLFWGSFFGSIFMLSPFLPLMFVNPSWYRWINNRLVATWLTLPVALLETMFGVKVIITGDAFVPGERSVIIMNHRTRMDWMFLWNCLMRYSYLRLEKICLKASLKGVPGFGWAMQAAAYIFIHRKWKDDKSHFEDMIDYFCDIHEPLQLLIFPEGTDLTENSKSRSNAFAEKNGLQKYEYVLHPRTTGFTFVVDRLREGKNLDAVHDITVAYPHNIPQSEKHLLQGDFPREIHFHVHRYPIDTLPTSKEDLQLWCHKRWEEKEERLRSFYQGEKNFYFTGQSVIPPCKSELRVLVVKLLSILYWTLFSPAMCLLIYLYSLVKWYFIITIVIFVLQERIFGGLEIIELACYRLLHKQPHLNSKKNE

Tests used:
[1] = biological target: T1, ALCAT1 (Homo sapiens (Human), UniProt Q6UWP7); assay: In vitro acyltransferase assay for ALCAT1 inhibitors; format: biochemical; details: for IC50: ALCAT1 enzyme activity, triplicates, GraphPad
From the text: The human ALCAT1 protein were expressed in Spodoptera frugiperda (Sf9) insect cells by using a Bac-to-Bac baculovirus expression system (Invitrogen) according to the manufacturer's instruction. High-titer recombinant baculovirus expressing the human ALCAT1 protein was generated by several rounds of viral amplification. The Sf9 cells were typically infected with recombinant baculovirus for 3 days, harvested in ice-cold phosphate-buffered saline (PBS), and homogenized in 20 mm NaCl by going through French press. The total cell lysates were centrifuged at 10,000×g for 1 hours at 4° C. to eliminate the nucleus fraction, followed by ultracentrifugation at 100,000×g to pallet the membrane fraction. The membrane fraction was resuspended in enzymatic buffer that contain 10% glycerol, quantified for protein concentration, aliquoted, and stored at −80° C.
ALCAT1 enzymatic activity was determined by measuring the conversion of monolysocardiolipin (MLCL) to cardiolipin or lysophosphatidylglycerol (LPG) to phosphatidylglycerol (PG) in an enzymatic reaction mixture that contained 50 mm Tris/HCl, pH 7.0, 100 μm lysophospholipids, 25 μm [^14C]acyl-CoA (50 mCi/mmol, American Radiolabeled Chemicals, Inc), and membrane fraction (0.5-2.5 μg) in a total volume of 200 μl. The reaction was incubated at room temperature for 30 min. The lipids were extracted will chloroform, dried, and separated by thin layer chromatography (TLC) with chloroform:hexane:methanol:acetic acid (50:30:10:5, v/v) or chloroform:methanol:water (65:25:4, v/v). After separation, TLC plates were exposed to a Phosphorlmager screen to visualize the radiolabeled products with a Molecular Dynamics Typhoon Scanner (Sunnyvale, Calif.). In some experiments, NBD-CoA was used at 100 μM to replace the [^14C]acyl-CoA in the enzymatic reaction. All quantitative data were expressed as mean±S.E. Statistical analyses for differences between two groups were carried out using a Student's t test.
Compound inhibitors for ALCAT1 enzyme were analyzed by an in vitro enzymatic assay as detailed above. Compound inhibitors were added to the enzymatic mixture at 1-20 μM concentrations before the start of the acyltransferase reaction.
Where multiple measurements were taken this is indicated by a “/” between multiple values.
IC50 values for each compound were analyzed in triplicates, and calculated by GraphPad software.

[2] = biological target: T1, ALCAT1; assay: Cell-based assay for ALCAT inhibitor compounds (H9C2 cells); details: H9C2 vector cell line and H9C2 with stable overexpression of ALCAT1
Protocol: The assay was performed on the H9C2 vector cell line and H9C2 with stable overexpression of ALCAT1. Materials used in the protocol were CoA, LPG, compounds, chloroform, methanol, 0.9% KCl, 6-well-plates, 1.5 mL tubes, DMEM, FBS, P/S and PBS.
Cells were seeded in 6-well-plates, 8×10^5 cells/well, and cultured at 37° C. in 5% CO2 overnight. Cells were then pretreated with selected compounds (3 μM) for 1 hr and incubated with CoA (5 μM) and LPG (100 μM) with or w/o selected compound (3 μM) for a further 3 hrs.
Cells were washed once with ice-cold PBS, collected in ice-cold PBS and centrifuged at 5000 rpm for 5 min at 4° C. 200 μL of chloroform: methanol (2:1) was added to the cell pellet, which was vortexed to suspend the cells and incubated at RT for 1 hr.
40 μL of 0.9% KCl was added and the sample was vortexed before centrifugation at 10000 rpm for 5 min at RT. The aqueous phase (upper layer) was discarded and the organic phase (lower layer) was loaded to a TLC plate (10 cm×20 cm), 40 μL/sample.
The plates were developed in chloroform: methanol: water (65:25:4) for about 30 min and scanned using a Typhoon Scanner. The bands intensity was analysed using ImageJ and the inhibition activity of the tested compounds was calculated.
Compound inhibitors for ALCAT1 enzyme were analyzed by an in vitro cell-based assay as detailed above.

[3] = 1 μM compound, in vitro enzymatic assay

SMILES	IC50 [1]	inhibition at 1 µM [1, 3]	also measured
O=C(Nc1cccc(-c2nnc(-c3ccco3)o2)c1)c1ccccc1Cl [Compound 3]	890 nM		% inh @ 10 μM ([1]; 10 μM compound, in vitro enzymatic assay): 48% and 89%
CCOc1ccc(I)cc1C(=O)Nc1cccc(-c2nnc(-c3ccco3)o2)c1 [Compound 200, 2-Ethoxy-N-(3-(5-(furan-2-yl)-1,3,4-oxadiazol-2-yl)phenyl)-5-iodobenzamide]			% inh @ 3 μM ([2]; 3 μM compound): 31%; inhibition at 3 µM ([2]; H9c2, 3 μM compound): 26%
O=C(Nc1cccc(-c2nnc(-c3ccco3)o2)c1)c1ccccc1OCCF [Compound 274]	630 nM	77%	% inh @ 1 μM [1, 3]: 82%
O=C(Nc1cccc(-c2nnc(-c3ccco3)o2)c1)c1cccc([N+](=O)[O-])n1 [Compound 346]	180 nM	86%	
COc1c(N)cc(Cl)cc1C(=O)Nc1cc(-c2nnc(-c3ccco3)o2)ccc1F [Compound 354]	610 nM		
CCc1ccc(OC)c(C(=O)Nc2cc(-c3nnc(-c4ccco4)o3)ccn2)c1 [Compound 393]	140 nM		
